The source of these data is patent US20240376151A1 (FOG PHARMACEUTICALS, published 2024).

Protein sequences, listed by entry. Tags and fused reporters are not part of them. Residues count along the entry.
UniProt Q9NZQ7, 18-239: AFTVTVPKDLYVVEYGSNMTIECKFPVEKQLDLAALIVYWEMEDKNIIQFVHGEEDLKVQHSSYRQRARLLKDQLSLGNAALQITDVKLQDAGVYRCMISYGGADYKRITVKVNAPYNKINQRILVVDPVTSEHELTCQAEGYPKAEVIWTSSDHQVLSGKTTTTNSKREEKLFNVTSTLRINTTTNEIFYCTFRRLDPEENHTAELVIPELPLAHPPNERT

This experiment concerns the target T1, human PD-L1 (residues 18-239) with C-terminal human IgG Fc-Avi tag (human, UniProt Q9NZQ7 18-239).
T1 construct: also called PD-L1-Fc; not shown: C-terminal human IgG Fc-Avi tag
Kind of experiment: SPR. (SPR reads the build-up and loss of mass on a sensor chip optically.)

One may read the Kd as the free concentration of one partner at which half of the binding sites on the other are occupied at equilibrium, for simple one-to-one binding. Read a high Kd as a looser complex.

DPALWQCVFAARSCYEE (Ac- at N-terminus; -NH2 at C-terminus; the two Cys stapled (Cys-stapled)) [FP28132] yielded a Kd of 400 nM.

As for DPALWMCVFAARQCYES (Ac- at N-terminus; -NH2 at C-terminus; the two Cys stapled (Cys-stapled)) [FP28135], the Kd is 1000 nM.
